# Experiments:
# [1] = system: NmU mRNA in HCC1954 cells; assay: Short-term drug exposure, qPCR of NmU mRNA in conditioned medium and cells; assay type: cell-based; settings: HCC1954, 12.5 μg/ml, 48 hours, vs untreated control
# Protocol: Conditioned medium (CM) was collected, centrifuged and filtered, as previously described (1-2), prior to NmU mRNA and protein analysis.
# Total RNA was isolated from cell lines and CM using TriReagent (Sigma-Aldrich). In order to remove any potential contaminating genomic DNA, RNA was treated with DNase enzymes and minus reverse transcriptase enzyme controls verified no DNA/pseudogene contamination of starting material. cDNA was prepared from 500ng cell-derived and 4 μl CM-derived total RNA, respectively.
# MDA-MB-361 = settings: cited from earlier work
# HCC1954 cells [2] = assay: Resistance to HER-targeted drugs after exogenous NmU treatment; assay type: cell-based; settings: HCC1954, exogenous NmU (NmU-25) 48 hours; all drugs
# Protocol: To assess if functional NmU receptors are expressed on cells, SKBR3 and HCC1954, (1×10^6 cells) were seeded in 25 cm^2 flask, allowed attach overnight and subsequently treated with 1 μM of NmU-25 (Bachem, Switzerland) for 24-48 hours.
# HCC1954 cells [3] = settings: cited from earlier work
# SKBR3 cells = settings: cited from earlier work
# SKBR3-NmU cells = assay: Proliferation assay, NmU cDNA- versus mock-transfected cells; assay type: cell-based; settings: SKBR3-NmU vs SKBR3-mock
# Protocol: (§1) Two siRNAs, designated NmU-1 (SEQ ID NO: 3; 5′-[…]-3′) and NmU-2 (SEQ ID NO: 4; 5′-[…]-3′) (s225456 and s21351, respectively, Ambion, UK), (30 nM) were used to target NmU. Scrambled siRNA (SCR) (AM4611, Ambion, UK) was used as negative control. Transient transfections were harvested 72 hours post-transfection for RNA and protein extraction. NmU full-length cDNA was sub-cloned from pOTB7 (clone ID3502168, Open Biosystems, Ireland) by PCR into pcDNA 3.1(+) zeo-plasmid vector (Invitrogen, Ireland). The construct was verified by DNA sequencing. Mock controls used were of pcDNA3.1(+) plasmid lacking NmU cDNA. Lipofectamine 2000 (Invitrogen, Ireland) was used for transfection following the manufacturer's instructions. Stable transfectants were established by selecting with zeocin (50 μg/ml and 300 μg/ml for HCC1954 and SKBR3 transfected cells, respectively; based on initial assessment of the toxicity of zeocin on these cells) (Invitrogen, Ireland).
# (§2) Cells with acquired-resistance compared to aged-parent cells and NmU cDNA-versus mock-transfected cells (HCC1954 variants, 2×10^3 cells/well; SKBR3 variants, 5×10^3 cells/well) were seeded for 24 hours prior to drug additions. […] Five days later, acid phosphatase assay was performed as previously detailed (3).
# HCC1954-NmU cells = assay: as above; assay type: cell-based; settings: HCC1954-NmU vs HCC1954-mock
# Protocol: as §1, §2
substance,measurement,setting,value
Trastuzumab,induced NmU mRNA levels in CM,[1],3.9±1 fold
same,induced NmU mRNA levels in corresponding cells,[1],3.9±1.15 fold
same,innate sensitivity/resistance,MDA-MB-361,sensitive
same,level of resistance induced by exogenous NmU,HCC1954 cells [2],1.1 fold
same,innate sensitivity/resistance,HCC1954 cells [3],resistant
same,innate sensitivity/resistance,SKBR3 cells,sensitive
same,anti-proliferative effects in NmU-transfected compared to mock-transfected cells,SKBR3-NmU cells,significantly compromised
same,anti-proliferative effects in NmU-transfected compared to mock-transfected cells,HCC1954-NmU cells,exception

# From patent publication US20140328840A1, “MARKER AND TARGET FOR RESPONSIVENESS AND RESISTANCE TO CANCER AGENTS” (The Provost, Fellows, Foundation Scholars, and the Other …, priority 2011, published 2014)
